In PubChem BioAssay (NCATS):
The list shows a part of the results, in another mix than the full data. Results filed as inconclusive are left out. The source made the active and inactive calls. Unless noted, calls come from the whole dose curve; as a rule, active = well fitted curve in the direction sought with a large enough effect; inconclusive = small, poorly fitted or top-dose-only effect, or another doubt; inactive = no such curve, though single readings can be large; an effect the other way counts as inactive or inconclusive.

Chains of the proteins cited; added tags and fusions are not shown. Lines headed by an entry give the natural chain unless they say otherwise; changes in a name come on top.
UniProt O75604: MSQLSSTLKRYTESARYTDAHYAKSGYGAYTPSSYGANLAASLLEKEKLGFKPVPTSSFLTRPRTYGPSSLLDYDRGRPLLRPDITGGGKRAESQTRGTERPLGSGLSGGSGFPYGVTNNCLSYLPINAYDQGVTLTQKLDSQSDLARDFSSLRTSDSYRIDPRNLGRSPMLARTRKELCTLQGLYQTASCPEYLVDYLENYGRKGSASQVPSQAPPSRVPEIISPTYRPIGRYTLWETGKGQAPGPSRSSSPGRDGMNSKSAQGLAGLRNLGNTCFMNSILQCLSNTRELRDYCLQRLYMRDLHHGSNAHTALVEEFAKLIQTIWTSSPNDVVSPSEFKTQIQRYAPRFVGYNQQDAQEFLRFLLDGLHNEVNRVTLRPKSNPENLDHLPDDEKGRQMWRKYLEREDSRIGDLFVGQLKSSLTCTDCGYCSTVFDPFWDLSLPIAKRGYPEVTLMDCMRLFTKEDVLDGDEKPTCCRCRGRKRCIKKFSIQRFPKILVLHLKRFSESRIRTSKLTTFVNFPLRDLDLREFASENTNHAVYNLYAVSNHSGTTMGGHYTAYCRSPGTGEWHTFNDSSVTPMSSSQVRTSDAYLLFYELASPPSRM
UniProt O89049, whole entry, looked up: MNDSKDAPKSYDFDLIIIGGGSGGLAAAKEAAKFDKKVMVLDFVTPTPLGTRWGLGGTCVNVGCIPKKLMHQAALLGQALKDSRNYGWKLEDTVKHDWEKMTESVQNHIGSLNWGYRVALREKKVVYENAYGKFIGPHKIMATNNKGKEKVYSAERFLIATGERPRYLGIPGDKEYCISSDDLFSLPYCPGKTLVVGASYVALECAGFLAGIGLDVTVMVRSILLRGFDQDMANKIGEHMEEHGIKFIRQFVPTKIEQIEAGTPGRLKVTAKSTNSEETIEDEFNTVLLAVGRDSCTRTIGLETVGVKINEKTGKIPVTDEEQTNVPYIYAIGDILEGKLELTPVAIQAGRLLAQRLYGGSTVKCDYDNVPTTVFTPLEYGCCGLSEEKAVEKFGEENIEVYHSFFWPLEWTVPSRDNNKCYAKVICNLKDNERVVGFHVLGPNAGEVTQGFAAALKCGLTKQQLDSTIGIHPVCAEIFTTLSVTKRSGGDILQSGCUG
UniProt P39748, whole entry, looked up: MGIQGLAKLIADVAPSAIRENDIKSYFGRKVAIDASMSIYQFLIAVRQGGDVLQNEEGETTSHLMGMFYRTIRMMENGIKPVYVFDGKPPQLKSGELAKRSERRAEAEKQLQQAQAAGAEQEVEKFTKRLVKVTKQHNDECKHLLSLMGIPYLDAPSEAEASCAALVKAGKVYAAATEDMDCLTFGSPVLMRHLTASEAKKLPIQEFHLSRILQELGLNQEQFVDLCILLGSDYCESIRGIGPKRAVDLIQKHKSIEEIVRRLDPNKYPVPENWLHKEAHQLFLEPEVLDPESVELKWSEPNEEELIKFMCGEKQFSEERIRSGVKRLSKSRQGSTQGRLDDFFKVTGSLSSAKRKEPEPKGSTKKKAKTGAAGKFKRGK
UniProt P83916, whole entry, looked up: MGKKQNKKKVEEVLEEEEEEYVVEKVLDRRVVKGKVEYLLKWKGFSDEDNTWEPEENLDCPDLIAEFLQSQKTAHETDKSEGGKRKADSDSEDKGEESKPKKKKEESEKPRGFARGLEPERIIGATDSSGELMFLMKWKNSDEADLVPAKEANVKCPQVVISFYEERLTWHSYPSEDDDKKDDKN
UniProt Q6LX38: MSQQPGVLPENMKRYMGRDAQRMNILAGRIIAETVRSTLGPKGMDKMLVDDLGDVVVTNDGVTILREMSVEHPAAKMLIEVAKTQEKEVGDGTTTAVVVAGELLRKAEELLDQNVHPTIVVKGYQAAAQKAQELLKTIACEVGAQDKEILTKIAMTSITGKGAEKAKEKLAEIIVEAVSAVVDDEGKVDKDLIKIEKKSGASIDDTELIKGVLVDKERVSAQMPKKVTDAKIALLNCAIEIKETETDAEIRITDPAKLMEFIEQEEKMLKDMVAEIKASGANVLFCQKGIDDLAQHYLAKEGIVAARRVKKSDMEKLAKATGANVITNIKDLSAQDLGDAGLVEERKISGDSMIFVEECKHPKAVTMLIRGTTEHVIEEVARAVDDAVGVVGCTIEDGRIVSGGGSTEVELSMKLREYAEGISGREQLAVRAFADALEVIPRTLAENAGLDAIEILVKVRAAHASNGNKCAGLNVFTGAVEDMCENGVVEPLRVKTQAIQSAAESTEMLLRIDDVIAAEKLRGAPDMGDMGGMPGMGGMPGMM
UniProt P16473, whole entry, looked up: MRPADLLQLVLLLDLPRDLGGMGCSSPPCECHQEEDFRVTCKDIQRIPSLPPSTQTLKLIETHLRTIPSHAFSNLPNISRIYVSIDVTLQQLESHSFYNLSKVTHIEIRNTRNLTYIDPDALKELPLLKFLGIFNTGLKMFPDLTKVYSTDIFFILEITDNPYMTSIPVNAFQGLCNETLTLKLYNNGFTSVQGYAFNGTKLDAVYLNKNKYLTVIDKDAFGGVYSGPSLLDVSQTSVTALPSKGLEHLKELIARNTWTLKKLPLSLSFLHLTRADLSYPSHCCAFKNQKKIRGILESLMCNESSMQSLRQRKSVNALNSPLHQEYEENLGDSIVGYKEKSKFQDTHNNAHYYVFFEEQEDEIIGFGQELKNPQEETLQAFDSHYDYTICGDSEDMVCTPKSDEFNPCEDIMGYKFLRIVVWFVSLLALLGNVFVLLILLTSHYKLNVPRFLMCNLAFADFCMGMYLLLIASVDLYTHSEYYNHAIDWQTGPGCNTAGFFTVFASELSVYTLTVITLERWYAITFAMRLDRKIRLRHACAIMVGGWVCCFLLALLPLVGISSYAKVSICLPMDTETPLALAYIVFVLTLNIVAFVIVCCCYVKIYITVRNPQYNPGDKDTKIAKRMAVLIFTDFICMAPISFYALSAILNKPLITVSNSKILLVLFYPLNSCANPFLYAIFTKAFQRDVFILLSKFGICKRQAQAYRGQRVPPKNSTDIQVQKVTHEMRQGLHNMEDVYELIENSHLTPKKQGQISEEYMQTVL
UniProt Q96QE3: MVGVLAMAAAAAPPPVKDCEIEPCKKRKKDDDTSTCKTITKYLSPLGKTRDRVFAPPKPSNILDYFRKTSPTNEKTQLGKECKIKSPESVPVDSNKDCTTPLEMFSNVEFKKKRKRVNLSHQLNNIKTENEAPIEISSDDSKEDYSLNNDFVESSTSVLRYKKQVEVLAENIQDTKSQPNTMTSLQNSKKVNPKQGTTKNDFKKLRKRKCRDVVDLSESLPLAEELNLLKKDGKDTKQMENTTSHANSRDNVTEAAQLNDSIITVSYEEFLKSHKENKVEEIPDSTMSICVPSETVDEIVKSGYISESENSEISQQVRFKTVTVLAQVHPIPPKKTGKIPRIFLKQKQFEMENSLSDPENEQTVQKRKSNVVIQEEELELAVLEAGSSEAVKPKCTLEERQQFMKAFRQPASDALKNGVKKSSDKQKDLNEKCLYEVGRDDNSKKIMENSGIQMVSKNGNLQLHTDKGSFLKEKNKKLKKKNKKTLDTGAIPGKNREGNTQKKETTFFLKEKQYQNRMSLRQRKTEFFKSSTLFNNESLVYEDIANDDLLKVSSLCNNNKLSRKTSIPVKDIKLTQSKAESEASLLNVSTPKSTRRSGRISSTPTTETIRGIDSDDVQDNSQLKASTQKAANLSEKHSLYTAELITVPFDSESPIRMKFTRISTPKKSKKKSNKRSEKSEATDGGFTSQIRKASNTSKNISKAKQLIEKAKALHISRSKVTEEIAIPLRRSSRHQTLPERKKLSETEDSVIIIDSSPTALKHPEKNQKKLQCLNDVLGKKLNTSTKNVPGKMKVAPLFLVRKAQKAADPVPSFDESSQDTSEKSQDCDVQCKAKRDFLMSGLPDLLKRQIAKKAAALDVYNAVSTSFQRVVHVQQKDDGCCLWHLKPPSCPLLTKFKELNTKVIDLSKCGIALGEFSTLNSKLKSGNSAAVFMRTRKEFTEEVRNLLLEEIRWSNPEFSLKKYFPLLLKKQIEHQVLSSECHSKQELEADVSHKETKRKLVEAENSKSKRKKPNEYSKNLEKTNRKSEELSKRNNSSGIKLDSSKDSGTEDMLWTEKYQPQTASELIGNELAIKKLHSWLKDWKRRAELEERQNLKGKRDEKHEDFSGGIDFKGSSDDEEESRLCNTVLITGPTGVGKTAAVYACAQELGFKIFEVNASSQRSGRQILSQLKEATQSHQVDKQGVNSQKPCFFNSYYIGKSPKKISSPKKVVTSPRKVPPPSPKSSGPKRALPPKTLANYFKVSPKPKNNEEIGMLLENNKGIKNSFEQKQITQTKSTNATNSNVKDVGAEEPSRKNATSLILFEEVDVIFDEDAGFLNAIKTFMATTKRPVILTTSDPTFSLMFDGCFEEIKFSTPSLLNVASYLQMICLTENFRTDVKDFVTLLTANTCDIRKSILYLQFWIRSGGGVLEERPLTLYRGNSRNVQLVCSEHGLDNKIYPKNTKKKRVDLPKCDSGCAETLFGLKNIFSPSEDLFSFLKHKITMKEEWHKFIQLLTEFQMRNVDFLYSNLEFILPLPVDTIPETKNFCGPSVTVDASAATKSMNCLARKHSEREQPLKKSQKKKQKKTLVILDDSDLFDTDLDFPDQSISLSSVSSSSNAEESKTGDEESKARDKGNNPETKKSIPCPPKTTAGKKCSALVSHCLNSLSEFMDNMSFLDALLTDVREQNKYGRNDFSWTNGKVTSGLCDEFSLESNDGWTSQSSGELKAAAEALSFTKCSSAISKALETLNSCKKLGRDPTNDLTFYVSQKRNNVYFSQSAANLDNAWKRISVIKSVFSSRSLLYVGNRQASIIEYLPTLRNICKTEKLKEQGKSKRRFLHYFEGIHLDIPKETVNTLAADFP
UniProt P34981: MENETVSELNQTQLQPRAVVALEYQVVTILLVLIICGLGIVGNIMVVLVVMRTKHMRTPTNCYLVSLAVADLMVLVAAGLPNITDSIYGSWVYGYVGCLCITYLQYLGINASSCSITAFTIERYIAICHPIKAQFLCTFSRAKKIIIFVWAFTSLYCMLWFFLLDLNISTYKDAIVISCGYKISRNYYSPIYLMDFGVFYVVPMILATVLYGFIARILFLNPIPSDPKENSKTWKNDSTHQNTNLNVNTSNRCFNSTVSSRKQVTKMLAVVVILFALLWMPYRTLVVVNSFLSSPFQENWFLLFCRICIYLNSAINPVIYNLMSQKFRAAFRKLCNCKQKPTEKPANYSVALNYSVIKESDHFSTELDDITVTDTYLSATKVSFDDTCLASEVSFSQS
UniProt P51570: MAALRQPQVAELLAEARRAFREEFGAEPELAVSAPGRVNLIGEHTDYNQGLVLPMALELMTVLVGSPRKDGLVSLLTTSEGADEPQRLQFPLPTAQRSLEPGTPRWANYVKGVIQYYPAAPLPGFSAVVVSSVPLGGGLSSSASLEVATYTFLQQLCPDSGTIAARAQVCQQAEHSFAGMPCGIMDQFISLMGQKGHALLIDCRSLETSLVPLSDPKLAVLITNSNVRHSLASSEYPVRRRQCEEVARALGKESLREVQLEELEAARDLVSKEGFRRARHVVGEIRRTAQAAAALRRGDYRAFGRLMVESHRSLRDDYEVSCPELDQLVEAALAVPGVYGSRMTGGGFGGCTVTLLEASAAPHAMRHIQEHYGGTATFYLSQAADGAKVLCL
UniProt Q13526, whole entry, looked up: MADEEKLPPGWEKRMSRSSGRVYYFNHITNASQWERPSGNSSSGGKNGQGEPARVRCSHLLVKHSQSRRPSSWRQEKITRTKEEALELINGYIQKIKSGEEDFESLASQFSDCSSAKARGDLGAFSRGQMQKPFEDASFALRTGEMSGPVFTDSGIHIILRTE
UniProt O94782: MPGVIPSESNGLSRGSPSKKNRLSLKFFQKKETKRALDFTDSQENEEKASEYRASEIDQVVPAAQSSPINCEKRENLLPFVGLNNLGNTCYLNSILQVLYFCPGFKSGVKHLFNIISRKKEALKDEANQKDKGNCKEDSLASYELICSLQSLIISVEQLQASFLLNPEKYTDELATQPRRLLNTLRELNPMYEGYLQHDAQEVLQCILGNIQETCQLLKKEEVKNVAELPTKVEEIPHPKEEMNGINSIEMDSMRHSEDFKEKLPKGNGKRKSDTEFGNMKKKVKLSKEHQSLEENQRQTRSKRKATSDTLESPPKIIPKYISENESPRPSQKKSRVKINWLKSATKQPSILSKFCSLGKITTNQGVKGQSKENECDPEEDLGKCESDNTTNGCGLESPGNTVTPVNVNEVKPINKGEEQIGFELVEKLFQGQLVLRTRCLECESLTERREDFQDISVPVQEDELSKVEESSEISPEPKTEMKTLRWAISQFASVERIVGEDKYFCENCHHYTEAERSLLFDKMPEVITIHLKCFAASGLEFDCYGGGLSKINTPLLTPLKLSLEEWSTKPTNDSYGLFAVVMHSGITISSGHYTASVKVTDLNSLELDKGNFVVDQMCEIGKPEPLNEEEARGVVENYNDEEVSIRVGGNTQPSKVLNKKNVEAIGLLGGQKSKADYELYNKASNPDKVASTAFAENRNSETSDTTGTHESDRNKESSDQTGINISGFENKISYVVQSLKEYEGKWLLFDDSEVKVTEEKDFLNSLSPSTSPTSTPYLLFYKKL

Columns and labels:
[1] = qHTS Assay for Lipid Storage Modulators (AID 1519; calls by dose curve; note: % is set by controls: 0 for no effect and ±100 for the full control effect); settings: Drosophila S3 cells, BODIPY lipid droplet/cell ratio, laser cytometry, cells loaded with oleic acid; at 57.5 µM (top of the series)
[2] = target: DNA repair nuclease/redox regulator APEX1 (Homo sapiens) (UniProt P27695); assay: qHTS Validation Assay for Inhibitors of the Human Apurinic/apyrimidinic Endonuclease 1 (APE1) (AID 1705;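 note: TAMRA fluorescence gain over two minutes as APE1 cuts a quenched THF abasic duplex; % is set by controls: 0 for no effect and ±100 for the full control effect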); settings: purified APE1 endonuclease activity, fluorescence, titration; at 57.1 µM (top of the series)
In short: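 Read-out: TAMRA fluorescence (525 nm ex, 598 nm em) from cleavage of a quenched THF abasic-site duplex, 50 nM final; activity taken as intensity change between third and first of three reads 60 s apart.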

[3] = Counterscreen for APE1 Inhibitors: Fluorescent Dye Displacement Validation Assay (AID 1707); settings: fluorescent dye displacement from DNA; at 57.1 µM (top of the series);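 note: plate controls were ThO with dsDNA and no compound for no effect and ThO without dsDNA for full effect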
In short: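 Thiazole Orange (250 nM) bound to 50 nM TAMRA-labelled dsDNA with tetrahydrofuran abasic site; displacement by DNA-binding compounds lowers fluorescence. Buffer 50 mM Tris-HCl pH 7.5, 50 mM NaCl, 2 mM MgCl2, 0.01% Tween-20; endpoint read at 480/540 nm.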

[4] = target: Ferritin light chain (Equus caballus) (UniProt P02791); assay: qHTS Validation Assay for Identification of Novel General Anesthetics (AID 2323); settings: horse apoferritin, anesthetic-site fluorescent probe displacement; at 76.9 µM (top of the series); note: % is set by controls: 0 for no effect and ±100 for the full control effect
In short: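 10 uM horse-spleen apoferritin + 1-AMA (50% saturated, PBS); cpd pin-transferred, 10 min RT. Ex 380/Em 535 nm endpoint. Activity normalized between free 1-AMA and 1-AMA/apoferritin; 4-parameter Hill fit of concentration-response.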

[5] = target: ATP-dependent DNA helicase Q1 (Homo sapiens) (UniProt P46063); assay: qHTS Validation Assay for Inhibitors of RecQ-Like Dna Helicase 1 (RECQ1) (AID 2353); settings: recombinant RECQ1 helicase DNA unwinding assay; at 25.6 µM (top of the series);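 note: plate controls were DMSO vehicle for no effect and enzyme-free control for full effect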
In short: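 50 nM RECQ1T1 preincubated 15 min with compound in Tris pH 8.0 buffer with MgCl2, DTT, Tween-20 and 2.5 ug/ml poly(dI-dC); started with 200 nM TAMRA/BHQ-2 forked duplex and 2 mM ATP. Unwinding read as fluorescence (525/598 nm), two reads 2 h apart.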

[6] = Cytometric Cell-Based qHTS for Inhibitors of the mTORC1 Signaling Pathway in MEF (Tsc2-/-, p53-/-) Cells (AID 2660); settings: mTORC1 pathway cytometry; at 38.3 µM (top of the series);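 note: percent of cells above a phospho-rpS6 to PI ratio cutoff in each well; plate controls were DMSO for no effect and rapamycin for full effect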
In short: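 Tsc2-/-, p53-/- MEFs (empty vector) exposed to compound 24 h at 37 C, fixed, stained with Alexa-488 anti-phospho-rpS6 Ser235/236 and propidium iodide. Acumen laser scanning; phospho-S6/PI ratio thresholded against 7.5 nM rapamycin, reported as % positive cells.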

[7] = High Content Imaging Cell-Based qHTS for Inhibitors of the mTORC1 Signaling Pathway in MEF (Tsc2-/-, p53-/-) Cells (AID 2666); settings: at 38.3 µM (top of the series);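 note: percent of cells scored positive for phospho-rpS6 Ser235/236 immunostaining by imaging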
In short: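 Phospho-rpS6 (Ser235/236) immunofluorescence, normalized and scored as % positive cells using rapamycin and DMSO controls, was read in empty-vector Tsc2-/-, p53-/- MEFs after 24 h compound exposure at 37 C; propidium iodide counted cells.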

[8] = Validation screen for small molecules that induce DNA re-replication in MCF 10A normal breast cells (AID 463097); settings: MCF 10A cells, DNA re-replication phenotype imaging; at 46.1 µM (top of the series); note: 0% is about no effect; nearly all actives have a fitted effect of over 60% in size
In short: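 250 MCF 10A cells/well; compound pin-transferred; 48 hr, 37 C, 5% CO2; Hoechst 40 min; imaged 405/500-530 nm. Hits = more high-intensity nuclei.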

[9] = target: Ubiquitin carboxyl-terminal hydrolase 2 (Homo sapiens) (UniProt O75604); assay: qHTS Validation Assay for Inhibitors of Ubiquitin-specific Protease USP2a Using CHOP2 as the Reporter (AID 463106); settings: USP2a cleavage of CHOP2 reporter, enzymatic; at 38.3 µM (top of the series);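 note: plate controls were DMSO for no effect and full inhibition by NEM for full effect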
In short: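 USP2 core (10 nM final) was preincubated with compound 30 min at RT in pH 8.0 Tris/CaCl2/beta-ME/CHAPS buffer. Ub-CHOP2 and reporter substrate (25 nM final each) were then added, with fluorescence (Ex 485/Em 531) read after 60 min. Data were normalized to NEM full inhibition and fitted to concentration-response curves.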

[10] = qHTS Validation Assay to Find Inhibitors of Chronic Active B-Cell Receptor Signaling (AID 485345; active = well fitted curve in the direction sought with a large enough effect in the main read-out, with a control signal flat, not every such curve was filed as active;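 note: 0% = untreated basal cells and 100% = 10 µM MG-132 proteasome inhibitor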); settings: ABC-DLBCL cells, chronic BCR signaling reporter, CBG luciferase; at 46.1 µM (top of the series)
In short: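 TMD8 ABC-DLBCL cells stably carrying doxycycline-inducible IkappaBalpha–green luciferase fusion plus unfused red luciferase; compounds 46 uM to 3 nM, 4 h at 37C with doxycycline. Corrected green/red luminescence ratio normalized to 10 uM MG-132 and basal cell wells; curves fitted.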

[11] = target: Beta-2 adrenergic receptor (Homo sapiens) (UniProt P07550); assay: qHTS validation assay of beta-arrestin-biased ligands of beta2-adrenergic receptor (AID 485366); settings: cell-based beta-arrestin recruitment to ADRB2, qHTS; at 46.1 µM (top of the series); note: 0% is about no effect
In short: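 Tango cells expressing recombinant beta2-AR and beta-arrestin with tTA-driven luciferase, in DMEM with 1% FBS. Compounds were titrated up to 46 microM for 18 hr at 37 degrees C. Luminescence was read 15 min after substrate; curves were fitted and class-assigned.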

[12] = target: Thioredoxin reductase 1, cytoplasmic (Rattus norvegicus) (UniProt O89049); assay: qHTS Assay for Substrates of Mammalian Selenoprotein Thioredoxin Reductase 1 (TrxR1) (AID 488772); settings: purified TrxR1, NADPH consumption substrate assay; at 57.1 µM (top of the series);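 note: NADPH fluorescence in the first read after selenite addition and not the 8 min delta; 0% is about no effect; a drop in NADPH fluorescence below the no-compound background marks a TrxR1 substrate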
In short: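 Quantitative HTS in Tris-HCl buffer at pH 7.5 with EDTA and Tween-20, using rat TrxR1, 400 uM NADPH and 400 uM selenite (final). A fall in initial NADPH fluorescence relative to background marked substrate behaviour.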

[13] = target: Thioredoxin reductase 1, cytoplasmic (Rattus norvegicus) (UniProt O89049); assay: qHTS Assay for Inhibitors of Mammalian Selenoprotein Thioredoxin Reductase 1 (TrxR1) (AID 488773); settings: purified TrxR1 enzyme activity; at 57.1 µM (top of the series);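 note: drop in NADPH fluorescence over an 8 min run after selenite addition; % is set by controls: 0 for no effect and ±100 for the full control effect; nearly all actives have a fitted effect of over 40% in size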
In short: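 Steps: enzyme (90 nM) plus NADPH (400 uM final), 5 min at ~22 deg C; compound added, 15 min; selenite (400 uM final) added; fluorescence followed for 8 min. Concentration-response curves derived from the normalized delta values.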

[14] = target: Flap endonuclease 1 (Homo sapiens) (UniProt P39748); assay: qHTS Validation Assay for the Inhibitors of Human Flap endonuclease 1 (FEN1) (AID 488816); settings: FEN1 nuclease activity, fluorogenic DNA substrate; at 57.1 µM (top of the series); note: % is set by controls: 0 for no effect and ±100 for the full control effect
In short: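 Human FEN1 (10 nM) preincubated 15 min at room temperature with compounds, then flap DNA substrate added at 50 nM final. Fluorescence read at 0 and 15 min; concentration-response fitted with four-parameter Hill equation.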

[15] = target: Chromobox protein homolog 1 (Homo sapiens) (UniProt P83916); assay: qHTS Validation Assay for Inhibitors of HP1-beta Chromodomain Interactions with Methylated Histone Tails (AID 488953); settings: HP1-beta chromodomain / methylated histone peptide binding assay; at 114 µM (top of the series);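 note: loss of AlphaScreen luminescence from HP1-beta binding biotinylated H3K9me3 peptide; % is set by controls: 0 for no effect and ±100 for the full control effect; nearly all actives have a fitted effect of over 50% in size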
[16] = target: Methanococcus maripaludis chaperonin (MmCpn) (UniProt Q6LX38); assay: High-Throughput Screening for Modulators of Cytosolic Chaperonin Activity: MmCpn Primary Screen (AID 488978); settings: MmCpn chaperonin refolding activity, biochemical qHTS; at 76.9 µM (top of the series);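 note: 50 nM MmCpn enzyme hydrolysing 30 µM ATP at 37 °C; 0% is about no effect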
In short: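 ADP formation read by HTRF Transcreener, 665/590 nm emission after 320 nm excitation. Enzyme: archaeal chaperonin at 50 nM final; substrate ATP 30 uM final; 10 min, 37C, after 5 min compound preincubation at RT.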

[17] = target: Thyrotropin receptor (Homo sapiens) (UniProt P16473); assay: qHTS Assay for Antagonists of the Thyroid Stimulating Hormone Receptor (AID 488980); settings: TSHR-expressing cells, cAMP antagonist read-out; at 57.5 µM (top of the series); note: 0% is about no effect
In short: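 TSHR-HEK293 cells; 70 uM RO 20-1724 PDE inhibitor; compound + EC80 TSH (4 nM final); anti-cAMP cryptate antibody/cAMP-d2 in lysis buffer, 30 min RT; HTRF 665/620 nm read.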

[18] = target: D(1A) dopamine receptor (Homo sapiens) (UniProt P21728); assay: HTS Assay for Allosteric Agonists of the Human D1 Dopamine Receptor: Primary Screen for Agonists (AID 488981); settings: D1 receptor-expressing cells, agonist cAMP readout; at 41.8 µM (top of the series); note: 0% is about no effect
In short: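 Tetracycline-induced HEK293 Trex D1 cells with forced coupling to calcium, loaded with no-wash calcium dye; kinetic fluorescence read 180 s after compound addition for agonism, then a further 180 s after an EC20 dopamine challenge for potentiation.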

[19] = target: D(1A) dopamine receptor (Homo sapiens) (UniProt P21728); assay: HTS Assay for Allosteric Agonists of the Human D1 Dopamine Receptor: Primary Screen for Antagonists (AID 488983); settings: D1 receptor cell assay, antagonist mode, qHTS titration; at 41.8 µM (top of the series);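 note: calcium flux response to an EC80 dopamine challenge measured with no-wash dye; % is set by controls: 0 for no effect and ±100 for the full control effect; nearly all actives have a fitted effect of over 65% in size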
[20] = Validation screen for small molecules that induce genotoxicity in human embryonic kidney (HEK293T) cells expressing luciferase-tagged ELG1 (AID 493106); settings: luminescence; at 46.1 µM (top of the series); note: 0% is about no effect
In short: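 Luminescence from an ELG1-luciferase fusion serves as the read-out, rising when genetic stress elevates ELG1 protein. HEK293T reporter cells (2,000 per well) received 23 nL compound, incubated 16 hr at 37 °C, then ONE-Glo for 30 min at room temperature.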

[21] = target: ATPase family AAA domain-containing protein 5 (Homo sapiens) (UniProt Q96QE3); assay: Validation screen for small molecules that inhibit ELG1-dependent DNA repair in human embryonic kidney (HEK293T) cells expressing luciferase-tagged ELG1 (AID 493107); settings: HEK293T ELG1-luciferase level, luminescence, 5-fluorouridine co-treatment, 16 h; at 46.1 µM (top of the series);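 note: cells co-treated with the DNA-damaging agent 5-fluorouridine alongside compound; % is set by controls: 0 for no effect and ±100 for the full control effect; inhibitors lower the ELG1-luciferase luminescence signal; nearly all actives have a fitted effect of over 70% in size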
In short: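 Luminescence from ONE-Glo, developed 30 min at room temperature, served as read-out of ELG1-luciferase levels. Beforehand, reporter HEK293T cells received 5-fluorouridine plus test compound for 16 hr at 37 °C.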

[22] = target: Thyrotropin-releasing hormone receptor (Homo sapiens) (UniProt P34981); assay: qHTS for Small Molecule Agonists and Allosteric Enhancers of Human TRH Receptor: Validation Screen for Agonists (AID 493127;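 active = calcium activation more than 3 SD above the typical response in the agonist read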;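 note: intracellular calcium rise by fluo-8 fluorescence before TRH EC20 addition; 0% is about no effect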); settings: TRH receptor agonist cell assay; at 2 µM; hits give high values
In short: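 Cells 2000/well, 10% FCS, 18 h 33.5C/5% CO2 → fluo-8 Ca dye, RT 30 min–1.5 h → FDSS baseline 10 × 1 s → compound added → 230 cycles (1 s/cycle) agonist mode. TRH controls.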

[23] = Nrf2 qHTS screen for inhibitors: Validation (AID 493153; active = well fitted inhibition curve with a large enough effect in the main read-out, with a control signal flat, not every such curve was filed as active;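 note: A549 cells with ARE-driven firefly luciferase reporter reporting Nrf2 activity; % of control where 0% means no effect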); settings: A549 ARE-Fluc reporter, luciferase luminescence, 18-24 h; at 46.1 µM (top of the series)
[24] = qHTS for Inhibitors of Cell Surface uPA Generation: Validation Assay (AID 493164); settings: mouse cells, plasminogen activation; at 38.3 µM (top of the series); note: 0% is about no effect
In short: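 RAW 264.7 cells (4000/well) were plated overnight, then exposed for 18 h at 37 C, 5% CO2 to compounds in a 7-point 1:5 titration (2.45 nM–38.3 uM final). Intracellular ATP was read by ATP-Lite luminescence.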

[25] = target: Galactokinase (Homo sapiens) (UniProt P51570); assay: qHTS Validation Assay for Inhibitors of Human Galactokinase (GALK) (AID 493189); settings: purified human GALK enzyme activity, qHTS 7-point titration; at 57.5 µM (top of the series); note: 0% is about no effect
In short: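 Luminescence from leftover ATP (Kinase-Glo Plus, 10 min) served as read-out after a 1 h room-temperature reaction of 5 nM GALK, 100 uM galactose and 35 uM ATP at pH8.0.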

[26] = Validation screen for small molecules that induce DNA re-replication in SW480 colon adenocarcinoma cells (AID 504364); settings: DNA re-replication phenotype (high-content imaging); at 46.1 µM (top of the series); note: 0% is about no effect
In short: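 250 cells/well; compound pinned in; 48 hr, 37 C, 5% CO2; Hoechst added, 40 min; nuclear fluorescence imaged, 405 ex / 500-530 em; re-replication scored as increase in high-intensity nuclei.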

[27] = target: Peptidyl-prolyl cis-trans isomerase NIMA-interacting 1 (Homo sapiens) (UniProt Q13526); assay: qHTS Validation Assay to Find Inhibitors of Pin1 (AID 504536; active = well fitted inhibition curve with a large enough effect in the polarisation, with a control signal flat, not every such curve was filed as active; the % refers to the polarisation;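 note: 0% = full Pin1 enzyme wells and -100% = no-enzyme wells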); settings: Pin1 fluorescence polarization peptide binding assay; at 57.5 µM (top of the series)
In short: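 Fluorescence polarization competition: compounds (titration) displace HiFluor-488-labeled Pin1-1b peptide from Pin1 (0.3 uM final) in pH 7.5 HEPES buffer with DTT, 10 min at room temperature; %Activity normalized to no-enzyme wells, curves fitted.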

[28] = Inducers of the Endoplasmic Reticulum Stress Response (ERSR) in human glioma: Validation (AID 504836); settings: human glioma cells, ER stress response reporter; at 38.3 µM (top of the series); note: 0% is about no effect
In short: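 Stably transfected U87-MG glioma cells carrying a GRP78-based luciferase sensor; 16 h compound incubation. Luminescence end-point read 10 min after Bright-Glo addition at room temperature.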

[29] = target: Ubiquitin carboxyl-terminal hydrolase 1 (Homo sapiens) (UniProt O94782); assay: Inhibitors of USP1/UAF1: Pilot qHTS (AID 504865); settings: purified USP1/UAF1, Ub-rhodamine cleavage fluorescence; at 114 µM (top of the series);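 note: rhodamine fluorescence freed from ubiquitin-rhodamine substrate followed over time; top concentration of the series differs between compounds; % is set by controls: 0 for no effect and ±100 for the full control effect; nearly all actives have a fitted effect of over 35% in size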

CN(C(=O)Cc1ccccc1)[C@@H]1CC[C@]2(CCCO2)C[C@H]1N1CCCC1
inactive: activity change, negative = inhibition [1] 3.89% | activity change, negative = inhibition [2] 2.38% | activity change, negative = inhibition [3] 16.9% | activity change, negative = inhibition [4] -8.47% | activity change, negative = inhibition [5] -0.703% | activity change, negative = inhibition [6] 7.37% | outcome [7] | re-replication induction [8] 1.9% | activity, negative = inhibition [9] -0.613% | activity change [10] -3.96% | activation [11] 0.352% | activity change, negative = NADPH consumption [12] 1.92% | activity change, negative = inhibition [13] -23.4% | activity, negative = inhibition [14] -8.24% | activity change, negative = inhibition [15] -12.6% | activity change, negative = inhibition [16] -2.38% | activity, negative = inhibition [17] -2.62% | activation [18] 2.96% | activity change, negative = inhibition [19] 15.4% | activity change, positive = ELG1 induction [20] -5.24% | activity change, negative = decrease [21] 5.81% | activation [22] 0.375% | activity change, negative = inhibition [23] 8.74% | activity change [24] 0.739% | activity change, negative = inhibition [25] 0.54% | activity (re-replication induction) [26] 10.3% | activity, negative = inhibition [27] -17.9% | activation [28] 2.68% | activity change, negative = inhibition [29] 2.29%
